In this assay the target is T1, monoamine oxidase-B (Rattus norvegicus, UniProt P19643).
T1 construct: serves as the tissue source for mitochondrial monoamine oxidase; from tissue; host or cells: rat whole brain minus cerebellum, P2 (crude mitochondrial) pellet
Description: in vitro inhibition of monoamine oxidase assay (modified Kindt), MAO-B. Type of assay: biochemical, Male Wistar rats. The conditions noted are these: rat whole brain minus cerebellum, mitochondrial P2 pellet; substrate [14C]-β-phenethylamine 200 µM; preincubated 15 minutes, incubated 30 minutes at 37°C; log-probit analysis. As to the method: The spiro[cyclopent[b]indole-piperidines] of the present invention are also useful as agents for treating depression. […] In this assay, a modification of an assay described by M. V. Kindt, et al., Europ. J. Pharmacol. 146: 313-318 1988.
The following reagents are prepared: • 1. Phosphate buffer (0.5 M), pH 7.4; 134.4 g dibasic sodium phosphate heptahydrate q.s. to 1 liter in distilled water (A) 17.3 g monobasic sodium phosphate q.s. to 250 ml in distilled water (B) Adjust pH of A to 7.4 by slowly adding B (volumes as needed) Dilute 1:10 in distilled water (0.05 M phosphate buffer, pH 7.4) • 2. 0.25 M Sucrose (phosphate buffered): 21.4 g sucrose, q.s. to 250 ml with 0.05 M phosphate buffer • 3. Substrate for monoamine oxidase-A: • a. serotonin creatine sulphate (5-hydroxytryptamine) is obtained from Sigma Chemical Company. A 5 mM stock solution is made up in 0.01 N-hydrochloric acid. The solution is used to dilute the specific activity of the [^3H]-hydroxytryptamine. • b. […]
• 10 µl 0.5 M phosphate buffer, pH 7.4 • 50 µl water or appropriate drug concentration • 400 µl tissue suspension Tubes are preincubated for 15 minutes at 37°C and the assay is started by adding 40 µl of combined substrate ([^3H]-5-hydroxytryptamine and [^14C]-β-phenethylamine) at 15 second intervals. […] Tissue blank values are determined by adding the acid before the radioactive substrate. […]

By UniProt entry, the sequences of proteins in these tests, tags left out.
UniProt P19643, whole entry: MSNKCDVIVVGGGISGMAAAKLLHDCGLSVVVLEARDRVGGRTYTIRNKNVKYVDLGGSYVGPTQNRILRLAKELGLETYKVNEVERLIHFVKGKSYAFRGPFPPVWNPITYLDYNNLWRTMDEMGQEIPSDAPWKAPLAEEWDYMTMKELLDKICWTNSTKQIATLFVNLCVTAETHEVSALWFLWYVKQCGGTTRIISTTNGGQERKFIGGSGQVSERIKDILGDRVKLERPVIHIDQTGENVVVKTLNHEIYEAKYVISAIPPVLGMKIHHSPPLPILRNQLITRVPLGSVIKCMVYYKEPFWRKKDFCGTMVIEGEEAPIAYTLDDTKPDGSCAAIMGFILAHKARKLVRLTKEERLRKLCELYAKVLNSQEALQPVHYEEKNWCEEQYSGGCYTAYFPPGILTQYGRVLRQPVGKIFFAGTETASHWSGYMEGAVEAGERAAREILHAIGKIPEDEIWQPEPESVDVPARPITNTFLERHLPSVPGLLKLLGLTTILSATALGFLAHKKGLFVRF

pIC50: −log10 of the molar value.

By pIC50 is commonly meant the negative decadic logarithm of the IC50, by convention in mol/L. A high value points to a low IC50.

`COc1cc(Br)c2oc(C3CCNCC3)cc2c1` [brofaromine, reference compound] showed a pIC50 of 4.63.
